Our source for the inhibition values is PubChem BioAssay AID651636 (Sanford-Burnham Center for Chemical Genomics, 2012).

Sequences of proteins named here, by UniProt entry; tags and fusion partners are left off.
UniProt P32249, whole entry, looked up: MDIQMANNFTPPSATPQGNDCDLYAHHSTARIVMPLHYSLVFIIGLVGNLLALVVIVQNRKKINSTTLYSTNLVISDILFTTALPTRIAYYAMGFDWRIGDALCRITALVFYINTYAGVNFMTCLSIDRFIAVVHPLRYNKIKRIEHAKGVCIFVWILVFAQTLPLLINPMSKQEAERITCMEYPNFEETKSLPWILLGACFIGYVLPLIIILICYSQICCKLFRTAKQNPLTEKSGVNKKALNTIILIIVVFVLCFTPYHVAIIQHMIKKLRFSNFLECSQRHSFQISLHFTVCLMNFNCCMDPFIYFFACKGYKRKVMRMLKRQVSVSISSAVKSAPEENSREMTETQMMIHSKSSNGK

This is a selection; strong and weak results do not stand in their true shares. The source made the active and inactive calls. Rule as the data show it: active = inhibition above about 38%; inactive = the rest.

For this experiment, the target named is G-protein coupled receptor 183 (Homo sapiens) (UniProt P32249). Briefly: blockers of oxysterol-driven EBI2 arrestin signaling – cell-based, luminescence, 7a,25-OHC stimulation, uHTS, primary screen (AID 651636).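 Also: enzyme fragment complementation signal reports receptor beta-arrestin coupling in cells; 0% = agonist plus DMSO wells and 100% = wells without agonist.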 As to conditions: EBI2 beta-arrestin recruitment, 7a,25-OHC stimulated, at 5 µM, hits give high values. For orientation: Activated receptors often draw arrestin, which recruitment assays turn into a signal.
For the compound `Cc1ccc(OCC(=O)OC2CN3CCC2CC3)cc1` (stereo not given), the inhibition – broadly, the drop in the measured response relative to a control, in per cent – is inactive: 4.1%. Take `O=[As](O)(c1cccs1)c1cccs1`: the inhibition was inactive: -4.25%. With `NS(=O)(=O)c1cccc(NC(=O)COC(=O)C(O)(c2ccccc2)c2ccccc2)c1` the figure was inactive: -4.63%; with `O=P1(Nc2ccc(Br)cn2)COc2ccccc2OC1`, inactive: 2.56%. With `Nc1cccc([As](=O)(O)c2ccccc2)c1`, the inhibition is inactive: -4.99%. On to `O=P1(Nc2ncccn2)COc2ccccc2OC1`, for which the inhibition was inactive: -1.93%. Under `Cc1ccc(S(=O)(=O)N(CCCN)CCCc2c(C)nc(N)[nH]c2=O)cc1` stands inactive: 1.56%; under `CCCC1OP(=O)(Nc2ccccc2)OCC1CC` (stereo not given), inactive: -1.12%. Regarding `O=C(/C=C/c1ccccc1)OC1CN2CCC1CC2` (stereo not given), the inhibition was inactive: 19.3%. Under `CN(C)C1(CNC(=O)c2ccc(S(C)(=O)=O)cc2)CCCCC1` stands inactive: -3.71%; under `Cc1ccc(C(=O)OC2CN3CCC2CC3)cc1` (stereo not given), inactive: -15%; under `CC1CCC(C(C)C)C(OP(=O)(Nc2ccccn2)c2ccccc2)C1` (stereo not given), inactive: 14.7%.

`Cc1nn(-c2ccccc2)c2c1P(=O)(N1CCOCC1)N(C)C(c1ccccc1)=N2` (stereo not given): the inhibition is inactive: -7.87%.

As to `CC1(CBr)Cn2c(nc3ccccc3c2=O)S1` (stereo not given), the inhibition was inactive: -3.74%. With `CN(C(=O)Cc1ccc(Cl)c(Cl)c1)[C@@H]1CCCC[C@H]1N1CCCC1` the figure was inactive: 3.19%.

Take `CC(C)/C=N\N=C(\N)N[N+](=O)[O-]`: the inhibition was inactive: -5.68%. For `COc1ccccc1CNC(=O)COC(=O)C(O)(c1ccccc1)c1ccccc1`, the inhibition is inactive: 0.45%. With `CC(C)(C)C(=O)NC(Sc1ncccn1)C(Cl)(Cl)Cl` (stereo not given) the figure was inactive: -10.2%. Under `Clc1n[nH]nc1-c1nn[nH][15n]1` stands inactive: -11.8%; under `O=P1(N(CCCl)CCCl)NCCC(C(F)(F)F)O1` (stereo not given), inactive: -4.77%; under `CCOP(=O)(Nc1ccc(C)cn1)OCC`, inactive: -2.15%. Under `CN(CCCl)Cc1cc(Cl)c(NC2=NCCN2)c(Cl)c1` stands inactive: 4.51%. With `CCOP(=O)(NC(=NC(C)c1ccccc1)NC(C)c1ccccc1)OCC` (stereo not given), the inhibition is inactive: -4.4%. For `CCC1=CC2Cc3nc4ccc(Cl)cc4c(N)c3C(C1)C2` (stereo not given), the inhibition is inactive: -7.52%.

In the case of `O=P1(Nc2ccccn2)COc2ccccc2OC1`, the inhibition was inactive: -8.06%.

Turning to `CCOP(=O)(Nc1cccc2ccccc12)OCC`, the inhibition was inactive: -11.8%. With `COc1cc(C2NCCC3(OCCO3)C2(C)C)cc(OC)c1OC` (stereo not given) the figure was inactive: -8.31%; with `CCCOP(=S)(Nc1nc(N)cc(=O)[nH]1)OCCC`, inactive: -1.49%. As for `Cc1ccc(NCCc2c([N+](=O)[O-])cc([N+](=O)[O-])cc2[N+](=O)[O-])cc1`, the inhibition was inactive: -0.134%. Take `Nc1cccc2c([As](=O)(O)O)cccc12`: the inhibition was inactive: -0.669%. Under `Cc1cccc(OCC(=O)OC2CN3CCC2CC3)c1` (stereo not given) stands inactive: -9.54%; under `O=[As](O)(c1cccc(O)c1)c1cccc(O)c1`, inactive: -8.99%. With `CS(=O)(=O)c1ccc(Cl)c(NC(=O)COC(=O)C(O)(c2ccccc2)c2ccccc2)c1` the figure was inactive: 0.393%; with `O=[As](O)(O)c1cccnc1`, inactive: 1.02%; with `COc1cc(C(=O)NCC2(N3CCOCC3)CCCCC2)cc(Cl)c1OC(C)C`, inactive: 2.81%. Turning to `O=C(OC1CN2CCC1CC2)c1ccc(Cl)cc1` (stereo not given), the inhibition is inactive: 2.53%. Under `CN(C(=O)Cc1ccc(Cl)c(Cl)c1)[C@H]1CC[C@@]2(CCCO2)C[C@@H]1N1CCCC1` stands inactive: 1.31%. As to `O=[N+]([O-])c1ccc2c(c1)nnn2O`, the inhibition was inactive: -11.8%. For `CN(C)C(=O)c1cc([N+](=O)[O-])cc2c1-c1c(cc([N+](=O)[O-])cc1[N+](=O)[O-])C2=O`, the inhibition was inactive: 24.3%. Turning to `CCOP1(=S)c2c(C)nn(CCC#N)c2N=C(c2ccc(F)cc2)N1C` (stereo not given), the inhibition is inactive: -0.218%. On to `CN(C(=O)Cc1ccccc1)[C@@H]1CC[C@]2(CCCO2)C[C@H]1N1CCCC1`, for which the inhibition was inactive: 2.23%. In the case of `N#CCCN(C(=O)COC(=O)C(O)(c1ccccc1)c1ccccc1)c1ccc(F)cc1`, the inhibition was inactive: -0.919%. As to `NC(=O)Nc1ccc([As](=O)(O)O)cc1`, the inhibition is inactive: -1.22%. Under `O=C(O)COc1ccc([As](=O)(O)O)cc1[N+](=O)[O-]` stands inactive: 2.76%; under `Nc1ccccc1[As](=O)(O)c1ccccc1`, inactive: -2.08%; under `CS(=O)(=O)c1cc([N+](=O)[O-])c2no[n+]([O-])c2c1`, inactive: 1.18%. Turning to `O=P(Nc1nccs1)(Oc1ccccc1)Oc1ccccc1`, the inhibition is inactive: 4.01%. Take `O=P(Nc1nccs1)(c1ccccc1)c1nc2ccccc2s1` (stereo not given): the inhibition is inactive: -5.97%. Under `CCOP1(=S)c2c(C)nn(CCC#N)c2N=C(c2ccccc2F)N1C` (stereo not given) stands inactive: -10.7%. Turning to `O=[N+]([O-])c1cc([N+](=O)[O-])c(-c2ccn[nH]2)s1`, the inhibition was inactive: 0.706%. Under `CC(C)NC(=O)NP(=O)(Oc1ccccc1)Oc1ccccc1` stands inactive: -2.13%; under `CCN(CC)C(=S)SC(NC=O)C(Cl)(Cl)Cl` (stereo not given), inactive: -4.25%. With `O=C(OC1CN2CCC1CC2)c1cccc2[nH]cnc12` (stereo not given) the figure was inactive: -6.31%; with `COC(=O)C1(C)COP(=O)(N2CCCCCC2)OC1` (stereo not given), inactive: 7.41%.

As for `CC(C)c1ccc(OP(=O)(Nc2ccccn2)Oc2ccccc2F)cc1` (stereo not given), the inhibition is inactive: -6.43%. With `ClCCSc1nnc(-c2cccnc2)o1` the figure was inactive: -6.31%. Under `Cc1ccc2nc3c(c(C)c2c1)CC(C(Cl)Cl)S3` (stereo not given) stands inactive: -1.95%; under `Cc1ccc(OP(=O)(Nc2ccc([N+](=O)[O-])cn2)Oc2ccc(C)cc2)cc1`, inactive: 11.4%; under `[N-]=[N+]=NC1CCCCC1NC(=O)c1cc([N+](=O)[O-])cc([N+](=O)[O-])c1` (stereo not given), inactive: -21.1%. As for `O=[N+]([O-])c1ccc(-c2cc([N+](=O)[O-])c(O)c([N+](=O)[O-])c2)cc1`, the inhibition is inactive: -10.7%. Consider `COc1cc(C(=O)NCC2(N3CCOCC3)CCCCC2)ccc1OCC(C)C`, for which the inhibition is inactive: 37.7%. Under `C[As](=O)(O)c1cccc(C(=O)O)c1` stands inactive: -6.29%; under `O=[As](O)(c1ccc(O)cc1)c1ccccc1O`, inactive: -1.55%. Under `COc1ccc(N/C(=N/P(=O)(N2CCOCC2)N2CCOCC2)N2CCOCC2)cc1` stands inactive: -2.6%.

For `O=[N+]([O-])c1cc(Oc2ccc([N+](=O)[O-])cc2C(F)(F)F)cc([N+](=O)[O-])c1`, the inhibition was inactive: -35.6%. In the case of `COc1cc(I)ccc1[As](=O)(O)O`, the inhibition is inactive: -4.64%. Regarding `COc1ccc2nc(NP(=O)(c3ccccc3)c3ccccc3)sc2c1`, the inhibition is inactive: 1.5%. Under `O=P1(N(CCCl)CCCl)OCCCN1CCCl` (stereo not given) stands inactive: 1.12%. With `O=P1(N(CCCl)CCCl)Nc2ccccc2N1`, the inhibition is inactive: -11.5%. With `Cc1cc(=O)[nH]c(N[N+](=O)[O-])n1` the figure was inactive: 2.41%; with `O=C(OC1CN2CCC1CC2)C12CC3CC(CC(C3)C1)C2` (stereo not given), inactive: -5.93%.

As for `Cc1c2c(nc3ccccc13)SC(C(Cl)Cl)C2` (stereo not given), the inhibition is inactive: -5.04%. For the compound `CCC(C)N(CC(C)C)C(=S)SC(NC(C)=O)C(Cl)(Cl)Cl` (stereo not given), the inhibition is inactive: -0.665%. Under `CCOC(=O)c1ccc(NC(=O)C(C)(CCl)SC)cc1` (stereo not given) stands inactive: -2.08%; under `CSc1ccc(Nc2c([N+](=O)[O-])cc([N+](=O)[O-])cc2[N+](=O)[O-])cc1`, inactive: 3.77%; under `O=C(OC1CN2CCC1CC2)c1cccc([N+](=O)[O-])c1` (stereo not given), inactive: -6%.

As for `O=C(Nc1ccncc1[N+](=O)[O-])c1ccc([N+](=O)[O-])cc1[N+](=O)[O-]`, the inhibition is inactive: -3.36%. With `O=C(COc1ccccc1)OC1CN2CCC1CC2` (stereo not given) the figure was inactive: -6.37%; with `O=C(O)C(=O)c1ccc(N(CCCl)CCCl)cc1`, inactive: 0.0548%. With `COC(=O)C1(C)COP(=O)(N2CCCC2)OC1` (stereo not given) the figure was inactive: 3.44%; with `COP1(=S)c2c(C)nn(CCC#N)c2N=C(c2ccc(F)cc2)N1C` (stereo not given), inactive: 8.73%. With `O=[N+]([O-])c1ccc(Nc2ccc(Oc3ccc([N+](=O)[O-])cc3[N+](=O)[O-])cc2)c([N+](=O)[O-])c1` the figure was inactive: 9.52%; with `Cc1cc(SC(NC=O)C(Cl)(Cl)Cl)ncn1` (stereo not given), inactive: -19.1%; with `O=P(Nc1ccccn1)(c1cccc2ccccc12)c1cccc2ccccc12`, inactive: 2.86%. As to `CCOC(=O)Nc1cccc([As](=O)(O)O)c1`, the inhibition is inactive: -7.47%. As to `Cc1cc(SC(NC(=O)c2ccccc2)C(Cl)(Cl)Cl)nc(C(C)C)n1` (stereo not given), the inhibition was inactive: -17.1%. Turning to `CCCCOc1ccc(C(=O)NCC2(N3CCCCC3)CCCCC2)cc1OC`, the inhibition was inactive: -1.59%. As for `COP(=O)(OC)N1CC1c1ccccc1` (stereo not given), the inhibition is inactive: -17.9%. With `CC1CCNP(=O)(N(CCCl)CCCl)O1` (stereo not given) the figure was inactive: -6.52%; with `O=C(O)C(O)c1ccc(N(CCCl)CCCl)cc1` (stereo not given), inactive: 0.13%; with `CCOC(=O)Nc1ccc([As](=O)(O)O)c(O)c1`, inactive: -0.938%. Regarding `COC(=O)C1(C)COP(=O)(Nc2ccccc2)OC1` (stereo not given), the inhibition is inactive: -9.18%. With `O=[N+]([O-])c1cccc(NC2=NCC(CBr)S2)c1` (stereo not given) the figure was inactive: 5.06%; with `O=C(O)CNc1ccc([As](=O)(O)O)cc1`, inactive: 8.37%.

Regarding `CC(C)(C)C(=O)NC(Sc1ccncn1)C(Cl)(Cl)Cl` (stereo not given), the inhibition was inactive: 4.02%. Under `O=[N+]([O-])c1ncn(CCn2ncnc2[N+](=O)[O-])n1` stands inactive: -6.17%; under `O=C(Nc1cc([As](=O)(O)O)ccc1O)c1ccccc1`, inactive: -12.7%; under `O=P1(N(CCCl)CCCl)OCCCS1` (stereo not given), inactive: -2.55%. Under `CN(C)C(=O)OCCc1n(C)cc[n+]1C` stands inactive: -8.79%; under `CC(C)c1nc(Nc2ccccc2)n(P(=O)(N(C)C)N(C)C)n1`, inactive: 19.9%.
